The values that follow come from PMC6139374 (Cell, 2018).

This assay addresses non-C-terminally phosphorylated Akt1. The assay can be described thus: Fluorescence anisotropy binding of PDK1 to fluorescein-labeled Akt1. Also on record: species or system human. In general terms: Polarisation of emitted light reports the rotation of a fluorescent probe.

As a reminder, the Kd is the constant that tells how readily two partners part at equilibrium. Lower therefore signals higher affinity.

B1: PDK1: recombinant GST-tagged human PDK1 protein kinase (protein)
chain: MARTTSQLYDAVPIQSSVVLCSCPSPSMVRTQTESSTPPGIPGGSRQGPAMDGTAAEPRPGAGSLQHAQPPPQPRKKRPEDFKFGKILGEGSFSTVVLARELATSREYAIKILEKRHIIKENKVPYVTRERDVMSRLDHPFFVKLYFTFQDDEKLYFGLSYAKNGELLKYIRKIGSFDETCTRFYTAEIVSALEYLHGKGIIHRDLKPENILLNEDMHIQITDFGTAKVLSPESKQARANSFVGTAQYVSPELLTEKSACKSSDLWALGCIIYQLVAGLPPFRAGNEYLIFQKIIKLEYDFPEKFFPKARDLVEKLLVLDATKRLGCEEMEGYGPLKAHPFFESVTWENLHQQTPPKLTAYLPAMSEDDEDCYGNYDNLLSQFGCMQVSSSSSSHSLSASDTGLPQRSGSNIEQYIHDLDSNSFELDLQFSEDEKRLLLEKQAGGNPWHQFVENNLILKMGPVDKRKGLFARRRQLLLTEGPHLYYVDPVNKVLKGEIPWSQELRPEAKNFKTFFVHTPNRTYYLMDPSGNAHKWCRKIQEVWRQRYQSHPDAAVQ
modifications: left off: GST, N-terminal, kept
Where the note is “GST-PDK1, 0.4 μM fluorescein-labeled Akt1”, B1 showed a Kd of 200 nM. Further, the “Kd, fold lower than for binding to pSer473 Akt1” value (non-C-terminally phosphorylated vs pSer473 Akt1) is listed as “about 2 fold”.
